Experimental findings from ChEMBL document CHEMBL2046398, “Optimization of (2,3-dihydro-1-benzofuran-3-yl)acetic acids: discovery of a non-free fatty acid-like, highly bioavailable G protein-coupled receptor 40/free fatty acid receptor 1 agonist as a glucose-dependent insulinotropic agent” (J Med Chem, 2012) are described below.

For series [1], the system named is Plasma. The experiment in a line: Metabolic stability in rat plasma assessed as unchanged compound level. Format: ADME, cell-free.
The test system of series [2] is Plasma. The experiment in a line: Metabolic stability in plasma dog assessed as unchanged compound level. Format: ADME, cell-free, Canis lupus familiaris.

In the case of `Cc1cc(OCCCS(C)(=O)=O)cc(C)c1-c1cccc([14CH2]Oc2ccc3c(c2)OC[C@H]3CC(=O)O)c1`, the Stability entry in series [1] and in series [2] was “Stable” each time.
